{"source": "patent US20240335558A1", "about": "“ISOLATED POLYPEPTIDE AND USE THEREOF” (GLYCO-THERAPY BIOTECHNOLOGY CO., LTD., priority 2021, published 2024)", "key": {"SK-Br-3 (Her2+) cells": {"system": "SK-Br-3 (Her2+) cells", "test": "In vitro efficacy, CellTiter-Glo Luminescent Cell Viability Assay on SK-Br-3", "type": "cell-based", "conditions": "0.001-100 nM, 72 h incubation; FIG. 13", "method": "(§1) SK-Br-3 (Her2+) cells were cultured in RPMI 1640 medium (Gibco) supplemented with 10% FBS (Gibco). MDA-MB-231 (Her2−) cells were cultured in DMEM (Gibco) supplemented with 10% FBS (Gibco). The two types of cells in good culture condition were respectively plated in 96-well plates with 5000 cells per well and then incubated for 24 h in a constant-temperature cell incubator at 37° C. and 5% CO2. After the culture, the culture medium was removed from the 96-well plates, and 200 pL fresh culture medium with drug (Trastuzumab, Trastuzumab-G2F-FAmSucMMAE, or Trastuzumab-G2F-FAmP4Tz-TCO-MMAE) (final concentrations were 100 nM, 10 nM, 1 nM, 0.05 nM, 0.1 nM, 0.05 nM, 0.01 nM, 0.001 nM and 0 nM respectively) was then added to the plates. After the sample loading, the cells in the 96-well plates were further incubated for 72 h in the constant-temperature cell incubator. After the incubation, the cells were subjected to a CellTiter-Glo® Luminescent Cell Viability Assay (Promega) to measure the killing effect of the drug to be tested on SK-Br-3 and MDA-MB-231."}, "MDA-MB-231 (Her2−) cells": {"system": "MDA-MB-231 (Her2−) cells", "test": "In vitro efficacy, CellTiter-Glo Luminescent Cell Viability Assay on MDA-MB-231", "type": "cell-based", "conditions": "0.001-100 nM, 72 h incubation; FIG. 13", "method": "as §1"}}}
{"substance": "Trastuzumab-G2F-FAmP4Tz-TCO-MMAE: antibody conjugate from Trastuzumab-G2F-FAmP4Tz and TCO-PEG4-vc-PAB-MMAE, DAR 4", "values": [{"measurement": "killing effect on SK-Br-3 (Her2+) cells", "setting": "SK-Br-3 (Her2+) cells", "result": "strong killing effect"}, {"measurement": "killing effect on MDA-MB-231 (Her2−) cells", "setting": "MDA-MB-231 (Her2−) cells", "result": "no obvious killing effect"}]}
{"substance": "Trastuzumab-G2F-FAmSucMMAE: antibody conjugate from Trastuzumab-G2F and GDP-FAmSucMMAE using HpFT-2HR, MAR 4", "values": [{"measurement": "killing effect on SK-Br-3 (Her2+) cells", "setting": "SK-Br-3 (Her2+) cells", "result": "strong killing effect"}, {"measurement": "killing effect on MDA-MB-231 (Her2−) cells", "setting": "MDA-MB-231 (Her2−) cells", "result": "no obvious killing effect"}]}
